The values below come from patent US9730928B2, “Trizol-1-OL analogs anti-retroviral latency drugs” (priority 2013, dated 2017).

Assay type in all cases: cell-based, human
The test system of experiment [1] is JAK1. The experiment can be described thus: Phosphorylation of JAK1. Conditions: IL-2 alone or in the presence of HOAt. From the text:
(§1) Engagement of γc-cytokines to its receptors leads to a signaling cascade initiated by the phosphorylation and activation of the janus kinases JAK1 and JAK3. These kinases then phosphorylate and activate the transcription factors STATs.

Experiment [2] concerns JAK3. The experiment can be described thus: Phosphorylation of JAK3. Particulars: IL-2 alone or in the presence of HOAt.
From the text: as §1

In experiment [3] the test system is STAT5. The experiment can be described thus: STAT5 phosphorylation by flow cytometry in cultured TCM. On the procedure:
The levels of STAT5 phosphorylation were analyzed by flow cytometry after incubating cultured TCM with HOAt, IL-2, or a combination of both, during a 24 h period (FIG. 4B). STAT5 phosphorylation could be only slightly detected in the absence of either IL-2 or HOAt at 30 min.

Regarding “IL-2: γc-cytokine required for survival of the cells”, the “phosphorylation of JAK1” value in experiment [1] is on record as “increases phosphorylation”. Moreover, the “phosphorylation of JAK3” value in experiment [2] is listed as “increases phosphorylation”. The “STAT5 phosphorylation at 30 min, agent alone” value in experiment [3] (30 min) is reported as “dramatically increase the levels of STAT5 phosphorylation”. The “STAT5 phosphorylation after 24 hrs, agent alone” value in experiment [3] (24 hrs) was “decreased to basal levels”.
